{"source": "patent US12258561B2", "about": "“Compositions and methods to promote bone formation and their uses including for the treatment of cancer” (THE RESEARCH FOUNDATION FOR THE STATE UNIVERSITY OF NEW YORK, priority 2014, dated 2025)", "key": {"[1]": {"test_system": "unicortical defect in mouse tibia", "assay": "Opioid antagonist containing collagen implant in unicortical defect model, microCT", "format": "in vivo, C57BL/6 mice", "settings": "7 days after surgery", "source_text": "Implantation of Opioid Antagonist Containing Collagen Implant into a Unicortical Defect Model: Male 5-week old C57BL/6 mice (n=5 per treatment group for a total of 25 total animals) were used in this study. Treatment groups consisted of the following: 1) PBS+collagen sponge; 2) met5+collagen sponge; 3) BMP2+collagen sponge; 4) naltrexone+collagen sponge; 5) naloxone+collagen sponge. Unicortical defects were surgically administered through a small incision (approximately 3-mm) made just below the knee joint, located on the medial side of the tibia just below the tibial tuberosity on the tibial crest. In 5-weeks old male mice, the physeal plate is clearly visible and the drill bit was placed approximately 1-mm below this point. The drill-bit produces a unicortical defect with dimensions 300-μm diameter×1-mm depth. Bovine collagen sponge implants (Duraform) were prepared (approximately 1-mm×1-mm) and then soaked in PBS, 50-μM (28.7-μg in 10-μL), met-5 enkephalin (met5), 25-ng BMP2, 1-mM naltrexone (378-μg in 10-μL) or naloxone 1-mM (400-μg in 10-μL) (n=5 for each group, 25 total animals). […] In parallel, a separate group of animals served as non-surgical controls. Mice were euthanized 7-days after surgery, hind limbs were collected and tibias were prepared for micro-CT (μCT) analysis.\nMicroCT Analysis of Unicortical Defects: High-resolution images of the tibia were acquired with μCT imaging system (μT40; Scanco Medical). Tibias were scanned at 45-keV with an isotropic voxel size of 12-μm. An analysis region was selected from axial sections to include the entire unicortical defect bounded by the endosteal cortical wall. The volume corrected bone volume (bone volume/total volume; By/Tv), trabecular number (TbN) and trabecular thickness (TbTh) were calculated using the Scanco software."}, "[2]": {"test_system": "MSC cultures induced to become osteoblasts", "assay": "Osteogenesis: mineral formation in MSC with osteoinduction media (alizarin red-S staining)", "format": "cell-based, human", "settings": "positive control, relative to controls", "source_text": "Methods: Human Bone Marrow was Collected from Consenting Adult Patients undergoing either an elective primary proximal femoral total hip arthroplasty or elective primary distal femoral total knee arthroplasty (n=6, mean age 65) as a part of an IRB approved study. Human MSC were derived from the adherent fraction of cells derived from each whole bone marrow aspirate collected, while the monocyte population was collected from the non-adherent fraction of the bone marrow. The monocyte fraction was enriched through sub-culture with 100-ng/mL recombinant human macrophage colony-stimulating factor (MCSF; Wyeth). In parallel experiments described below, the femurs from 3-week (n=10) and 16-week (n=20) old male mice were collected and then the bone marrow was flushed from the femur according to the following: A 21-gauge needle was inserted into the femoral intramedular canal after the removal of the proximal and distal ends of the femur. Media was then carefully passed through the proximal end of the femur, which forced the bone marrow to pass out of the bone. Finally, the bone marrow pellet was mechanically disassociated using an 18-gauge needle and then passed through a 70-μm mesh filter. These whole bone marrow aspirates were used to generate osteoclasts. […]"}, "[3]": {"test_system": "posterolateral lumbar spine", "assay": "Rat posterolateral spinal fusion of L5-L6 vertebrae, microCT", "format": "in vivo, Sprague-Dawley rats", "settings": "collagen sponge implant; 25-ng BMP2 or 1-mM naloxone, 2-months", "source_text": "Rat Posterolateral Spinal Fusion of L5-L6 Vertebrae: 20 male, […] skeletally mature Sprague-Dawley rats underwent bilateral lumbar posterolateral spinal fusion at the L5-L6 vertebrae. Treatment groups will consist of the following: 1) sham surgery control; 2) collagen sponge implant; 3) BMP2+collagen sponge implant; 4) naloxone+collagen sponge implant. Under sterile conditions a 2-cm long posterior midline incision centered at L5-L6 vertebrae was made. A muscle-splitting approach was used, lateral to the facet joints, to expose the transverse processes of a particular vertebra. A high-speed 1-mm burr was used to decorticate the transverse processes of the L5-L6 vertebrae. Implants were prepared and implanted between the transverse processes bilaterally in the paraspinal muscle bed. Bovine collagen sponge implants will be prepared (approximately 1-cm×1-cm) and then soaked in PBS, 25-ng BMP2, 1-mM naloxone (400-μg in 10-μL). Animals were euthanized 2-months (n=5 rats per time point per treatment group for a total of n=20 rats) spines were collected and prepared for micro-CT (μCT) analysis."}, "[4]": {"settings": "25-ng BMP2, 1-mM naltrexone or 1-mM naloxone"}}}
{"molecule": "BMP2: recombinant bone morphogenic protein-2, positive control; b73 names recombinant human BMP2/BMP7-ligand (R&D Systems) (protein, UniProt P12643 283-396, looked up) Bone morphogenetic protein 2: QAKHKQRKRLKSSCKRHPLYVDFSDVGWNDWIVAPPGYHAFYCHGECPFPLADHLNSTNHAIVQTLVNSVNSKIPKACCVPTELSAISMLYLDENEKVVLKNYQDMVVEGCGCR", "values": [{"measurement": "Bv/Tv relative to non-surgical controls", "setting": "[1]", "value": "increased relative to non-surgical controls"}, {"measurement": "trabecular thickness (TbTh) relative to the control non-surgical group", "setting": "[1]", "value": "increased within the defect significantly"}, {"measurement": "increase in Bv/Tv relative to the PBS treated group", "setting": "[1]; [4]", "value": 32.4, "unit": "%"}, {"measurement": "increase in Bv/Tv relative to the surgical control group", "setting": "[1]; [4]", "value": 55.6, "unit": "%"}, {"measurement": "mineral formation", "setting": "[2]", "value": "increased mineral formation relative to controls"}, {"measurement": "bone formation in the lumbar spine versus collagen implants alone", "setting": "[3]", "value": "increased bone formation over the collagen implants alone"}]}
